# Experimental data: patent publication US7504421B2, “Substituted 2-thio-3,5-dicyano-4-aryl-6-aminopyridines and their use” (priority 1999, dated 2009)
# By UniProt entry, the sequences of proteins in these tests, tags left out.
# UniProt P30542, whole entry: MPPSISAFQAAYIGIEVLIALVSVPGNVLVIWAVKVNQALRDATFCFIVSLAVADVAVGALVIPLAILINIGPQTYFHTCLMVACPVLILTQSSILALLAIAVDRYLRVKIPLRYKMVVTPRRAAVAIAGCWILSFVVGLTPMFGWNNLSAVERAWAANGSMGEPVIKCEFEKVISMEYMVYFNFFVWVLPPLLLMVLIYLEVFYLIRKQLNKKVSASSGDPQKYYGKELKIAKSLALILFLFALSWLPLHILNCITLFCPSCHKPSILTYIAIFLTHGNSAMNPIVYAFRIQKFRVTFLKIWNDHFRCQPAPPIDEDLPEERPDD
# What was measured:
# adenosine A2b receptor = target: T1, adenosine A2b receptor (Homo sapiens, UniProt P29275); experiment: Intracellular cAMP (cAMP-RIA) in CHO cells transfected with cDNA for the A2b receptor, agonist mode; assay type: cell-based; settings: based on control without substance
# T1 sequence (P29275 1-332): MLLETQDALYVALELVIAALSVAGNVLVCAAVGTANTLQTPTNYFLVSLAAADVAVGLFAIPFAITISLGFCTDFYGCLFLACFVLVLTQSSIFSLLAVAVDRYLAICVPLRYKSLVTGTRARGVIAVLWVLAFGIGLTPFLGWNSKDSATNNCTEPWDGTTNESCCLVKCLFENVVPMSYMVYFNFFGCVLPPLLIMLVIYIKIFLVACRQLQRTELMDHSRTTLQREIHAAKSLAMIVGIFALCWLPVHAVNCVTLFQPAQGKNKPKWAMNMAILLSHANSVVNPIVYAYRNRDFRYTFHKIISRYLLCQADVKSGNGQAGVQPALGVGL
# Method: (§1) Cells of the permanent line CHO (Chinese Hamster Ovary) were stably transfected with cDNA for the adenosine receptor subtypes A1, A2a, A2b and A3. Binding of the substances to the A2a or A2b receptor subtypes was determined by measuring the intracellular cAMP concentration in these cells using a conventional radioimmunological assay (cAMP-RIA, IBL GmbH, Hamburg, Germany).
# In the case of the action of the substances as agonists, binding of the substances is expressed in an increase of the intracellular cAMP concentration.
# In the experiments below, the intracellular cAMP concentration in CHO cells which had been transfected with cDNA for the A2b receptor was determined. What is stated is the cAMP concentration in percent in all cells in a well of a microtiter plate, based on the control value obtained without any substances acting on the cells: […]
# adenosine A1 receptor = adenosine A1 receptor (Homo sapiens, UniProt P30542); experiment: Intracellular cAMP in CHO cells transfected with cDNA for the A1 receptor after prestimulation with forskolin; assay type: cell-based; settings: based on control prestimulated with 1 μM forskolin for 15 min (18% without forskolin)
# Method: as §1
# The adenosine receptors A1 and A3 are coupled to a Gi protein, i.e. stimulation of these receptors results in an inhibition of adenylate cyclase and thus a reduction of the intracellular cAMP level. To identify A1/A3 receptor agonists, the adenylate cyclase is stimulated using forskolin. However, additional stimulation of the A1/A3 receptors inhibits adenylate cyclase, so that it is possible to detect A1/A3 receptor agonists by a comparatively low concentration of cAMP in the cell.
# In the following experiments, the intracellular cAMP concentration in CHO cells transfected with the cDNA for the A1 receptor was determined.
smiles,measurement,setting,value
"CCNC(=O)[C@H]1O[C@@H](n2cnc3c(N)ncnc32)[C@H](O)[C@@H]1O [NECA, 5-N-ethylcarboxamido-adenosine, reference compound]",Concentration of intracellular cAMP in percent,adenosine A2b receptor; 10^-5 M,1263%
same,Concentration of intracellular cAMP in percent,adenosine A2b receptor; 10^-6 M,1226%
same,Concentration of intracellular cAMP in percent,adenosine A2b receptor; 10^-7 M,858%
same,Concentration of intracellular cAMP in percent,adenosine A2b receptor; 10^-8 M,340%
same,Concentration of intracellular cAMP in percent,adenosine A2b receptor; 10^-9 M,363%
same,Concentration of intracellular cAMP in percent,adenosine A1 receptor; 10^-5 M,28%
same,Concentration of intracellular cAMP in percent,adenosine A1 receptor; 10^-6 M,24%
same,Concentration of intracellular cAMP in percent,adenosine A1 receptor; 10^-7 M,24%
